Results: US10111889B2, “Uses of ganaxolone” (priority 2014, dated 2018)

Legend:
[1] = test system: GABAA receptor; test: Whole-cell patch clamp, tonic/holding current in somatosensory cortical layer II/III pyramidal cells of brain slices; format: cell-based, mouse; settings: for current density / inhibitory holding current / evoked current: mean±SEM
Procedure: (§1) Horizontal slices (400 μm) were prepared from the brains of C57BL/6J mice RR and RQ mice of either sex (16-26 days old). All procedures were approved by the University of Wisconsin Institutional Animal Care and Use Committee. Mice were anesthetized with isoflurane, decapitated, and the brain was removed and placed in ice-cold cutting solution containing (in mM): 125 NaCl, 25 NaHCO3, 2.5 KCl, 1.25 NaH2PO4, 0.5 CaCl2, 3.35 MgCl2, 25 D-Glucose, 13.87 M sucrose, and bubbled with 95% O2 and 5% CO2. Slices were cut using a vibratome (Leica VT 1000S, Global Medical Imaging; Ramsey, Minn.) and placed in an incubation chamber containing standard 2 mM CaCl2, 1 mM MgCl2 artificial cerebrospinal fluid (ACSF) at room temperature for 1 hour before being used for recordings. Whole cell patch-clamp recordings were made from somatosensory cortical layer II/III pyramidal cells or ventrobasal thalamic relay cells, visualized using an upright differential interference contrast microscope (Axioskop FS2, Zeiss; Oberkochen, Germany). Patch pipettes were pulled from thin-walled borosilicate glass (World Precision Instruments; Sarasota, Fla.) with a resistance of 3-5 MΩ when filled with intracellular solution containing (in mM): 140 K-gluconate, 10 EGTA, 10 HEPES, 20 phosphocreatine, 2 Mg2ATP, 0.3 NaGTP (pH 7.3, 310 mOsm). Recordings were made in a submerged chamber at room temperature using a MultiClamp 700B amplifier (Axon Instruments; Foster City, Calif.), filtered at 4 kHz and digitized at 10 kHz using a Digidata 1322A analog-digital interface (Axon Instruments). Data were acquired to a Macintosh G4 (Apple Computer; Cupertino, Calif.) using Axograph X v1.1.4 (Molecular Devices; Sunnyvale, Calif.).
(§2) Additional segments (30 s) just prior to and 90 s after bicuculline administration were analyzed to quantify inhibitory tonic currents. All-point amplitude histograms were computed for each segment, and fit with a Gaussian function only to the outward current portions relative to the peak in order to omit components arising from inward phasic mIPSCs. Tonic current was calculated as the difference between the fitted Gaussian means before and after bicuculline administration. Current density (pA/pF) was calculated by dividing the current by cell capacitance. Similar fitting was used to measure the currents produced by THIP (4,5,6,7-tetrahydroisoxazolo[5,4-c]pyridin-3-ol; Gaboxadol), allopregnanolone (ALLO) and ganaxolone (GANX).

[2] = test system: GABAA receptor; test: Whole-cell patch clamp, drug-induced current in ventrobasal thalamic relay neurons of brain slices; format: cell-based, mouse; settings: for current produced in thalamic neurons: mean±SEM; for reduction of induced current density in RQ compared to RR: thalamic relay neurons
Procedure: as §1, §2

`CC(=O)[C@H]1CC[C@H]2[C@@H]3CC[C@H]4C[C@](C)(O)CC[C@]4(C)[C@H]3CC[C@]12C` [GANX, 3α-hydroxy-3β-methyl-5α-pregnan-20-one] was tested, and the current density ([1]; 10 nM, RQ cortical neurons) was 0.38±0.08 pA/pF and the inhibitory holding current ([1]; 10 nM, RQ cortical neurons) was 9.8±2.5 pA.

With `Oc1noc2c1CCNC2` [THIP, 4,5,6,7-tetrahydroisoxazolo[5,4-c]pyridin-3-ol] the current density ([1]; 100 nM, RQ cortical neurons) was 0.36±0.16 pA/pF, the inhibitory holding current ([1]; 100 nM, RQ cortical neurons) was 6.5±1.7 pA and the “holding current amplitude and density in RQ relative to RR untreated neurons” value ([1]; 1 μM, RQ cortical neurons) was 2-4 times. It also gave a current density ([1]; 1 μM, RQ cortical neurons) of 1.3±0.14 pA/pF, an evoked current ([1]; 1 μM, RQ cortical neurons) of 23.8±2.2 pA and an inhibitory holding current ([1]; 1 μM, RQ cortical neurons) of 23.88±2.2 pA. For the same molecule, the evoked current ([1]; 1 μM, RR cortical neurons) was 21.4±5.7 pA, the “current in RQ thalamic neurons as % of the current produced in RR” value ([2]; THIP 1 μM) was 47% and the “current produced in thalamic neurons” value ([2]; THIP 1 μM, RQ thalamic relay neurons) was 69.3±22.4 pA. For the same molecule, the “current produced in thalamic neurons” value ([2]; THIP 1 μM, RR thalamic relay neurons) was 131.7±31.2 pA and the “reduction of induced current density in RQ compared to RR” value ([2]; THIP 1 μM) was “approximately 50%”.

With `CC(=O)[C@H]1CC[C@H]2[C@@H]3CC[C@H]4C[C@H](O)CC[C@]4(C)[C@H]3CC[C@]12C` [allopregnanolone] the “induced current amplitude and density in RQ compared to RR” value ([1]; 30 nM, cortical layer II/III cells) was “indistinguishable current amplitude and density”, the “reduction of induced current density in RQ compared to RR” value ([2]; ALLO 30 nM) was “approximately 50%” and the “current in RQ thalamic neurons as % of the current observed in RR” value ([2]; allopregnanolone 30 nM) was 39%. For the same molecule, the “current produced in thalamic neurons” value ([2]; allopregnanolone 30 nM, RQ thalamic relay neurons) was 13.7±3.8 pA and the “current produced in thalamic neurons” value ([2]; allopregnanolone 30 nM, RR thalamic relay neurons) was 34.7±6.5 pA.
